scFv variants of Ab-91 (heavy chain) against a SARS-CoV-2 spike peptide

Source: Engelhart et al. 2022 (doi:10.1038/s41597-022-01779-4), MIT Lincoln Laboratory and A-Alpha Bio; data file from the FLAb repository.

Binding partner: SARS-CoV-2 spike HR2 peptide, sequence PDVDLGDISGINAS.

Ab-91 is the parent antibody, in scFv form: VL, then a 15-residue (Gly4Ser)3 linker, then VH. The light chain is unchanged in all variants.
VL: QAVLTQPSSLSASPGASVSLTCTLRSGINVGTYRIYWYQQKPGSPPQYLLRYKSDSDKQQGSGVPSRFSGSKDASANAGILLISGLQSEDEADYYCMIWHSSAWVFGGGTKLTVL
VH: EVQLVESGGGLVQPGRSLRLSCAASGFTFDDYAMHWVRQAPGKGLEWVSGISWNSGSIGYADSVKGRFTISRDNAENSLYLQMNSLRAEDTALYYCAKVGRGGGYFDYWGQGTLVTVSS

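Phage display of a naive human antibody library on the peptide gave the parent. The library (AAYL51) carries one to three amino acid substitutions per variant, with no insertions or deletions. The assay is AlphaSeq: two haploid yeast populations carry antibody and antigen on their surface. Mating (16 h, 30 °C) was followed by selection of diploids and sequencing of their barcodes. Read counts were normalised to the haploid input and turned into Kd by a linear fit to BCL2-family pairs of known affinity, for each replicate. Each pool was mated in three replicate cultures.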

Changes read parent residue, position, new residue, counted from the first residue of the VH shown.
Scale: log10 of Kd in nM, estimated from mating counts; low values are strong binders.
Where no diploid with the target was found in that replicate, the entry reads "ND": below detection, most likely a poor binder, though not proof of it.
For reference, the parent read 1.86 as the reference entry and 0.88 as a member of this library.
Empty control strains, which show no peptide, gave a signal in 21% of pairings with library AAYL51; the median was 4.54 and 95% of these signals were weaker than 3.26. No background was subtracted. The control count says in how many pairings with the empty strains this scFv gave a signal, with their mean in brackets.

changes	log10 Kd (nM) by replicate	control signals
F27T	3.41 3.55 ND	1 of 9 (3.17)
Y32S D62T S63M	3.75 3.84 4.47	7 of 9 (5.12)
G26F D30A N54R	5.25 ND ND	4 of 9 (4.72)
S55Q G103E F106Y	5.75 4.92 3.32	1 of 9 (4.95)
G26F D31I Y60P	ND ND ND	2 of 9 (4.28)
G56K A61C G102E	ND ND 3.93	0 of 9
I58E S63D G104T	2.09 2.17 1.69	2 of 9 (3.92)
N54K G56M Y60H	4.38 ND 4.88	3 of 9 (4.02)
G50C R101Q	4.93 5.88 ND	3 of 9 (4.69)
F27V D30H S52M	4.21 ND ND	0 of 9
D31T G103M D107W	ND ND ND	1 of 9 (4.16)
G56T Y60A D62P	3.65 ND ND	0 of 9
D62E V64C K65W	ND ND 3.95	1 of 9 (3.65)
F106A Y108E	ND ND 4.16	2 of 9 (3.33)
H35G S63D G104R	ND 6.19 ND	4 of 9 (4.70)
I58F G59M D107R	ND ND ND	1 of 9 (4.00)
H35S Y60V G100V	ND ND 4.25	1 of 9 (5.28)
F27R F106S Y108I	ND ND ND	0 of 9
F27K F29Y G50V	ND ND ND	0 of 9
G26S M34C I51M	ND ND ND	2 of 9 (4.10)
N54L G56Q R101S	ND 5.32 4.98	4 of 9 (4.27)
F27G A33Q H35N	4.06 ND ND	1 of 9 (3.82)
N54Q G59F G102I	4.02 5.89 ND	2 of 9 (4.66)
G26N S55A Y105K	ND 4.71 ND	0 of 9
G50M G100S F106N	5.86 5.27 ND	4 of 9 (4.56)
M34N K65T	ND 4.67 ND	3 of 9 (4.43)
Y60Q G104A F106D	4.97 ND 3.67	3 of 9 (4.20)
I58M G100D Y105W	2.78 3.06 3.04	4 of 9 (4.43)
I58D R101C G104C	ND 4.27 ND	0 of 9
Y60L G100T G102C	ND 6.34 ND	1 of 9 (5.53)
G100H	1.51 1.82 0.63	2 of 9 (3.64)
G104Y Y105E F106S	ND 6.40 4.19	2 of 9 (4.80)
S63H V64F V99G	ND ND ND	0 of 9
I51E G102S G103I	ND ND 4.37	2 of 9 (4.09)
V64I Y105K	4.65 ND ND	2 of 9 (4.43)
H35V S57W V99E	4.42 ND 4.30	3 of 9 (4.76)
D30N	ND ND ND	0 of 9
F27H Y105M F106I	4.75 5.30 ND	2 of 9 (4.22)